Data: patent publication US20100247444A1, “COMPOUND, […], NUCLEAR MAGNETIC RESONANCE ANALYSIS METHOD, NUCLEAR MAGNETIC RESONANCE IMAGING METHOD, MASS SP[…] AND MASS SP[…] METHOD” (KYOTO UNIVERSITY, priority 2007, published 2010)

Details: Meth-A cancer bearing BALB/c mouse; 100 μl of 2 mg/ml in PBS via tail vein; organs collected after 1 hour; liver lysate supernatant
Experimental: (i) Preparation of a cancer bearing mouse Meth-A cells cultured in abdominal cavity of a BALB/c mouse were harvested by administrating 50 ml saline to the mouse. The cells were collected by centrifugation and resuspended in PBS (50 ml). The cells were counted and prepared at 2.0×10^7/ml. 100 μl of the solution containing the cells was subcutaneously injected to a left foot of another BALE/c mouse. […] After 1 hour, the mouse was dissected and the necessary organs (blood (200 μl), liver, kidney, cancer) were collected into microtubes. 1× Lysis buffer (500 μl) was added to each of the tubes and the organs were mashed by using beads. The microtubes were centrifuged (14,000 rpm, 30 min) for the debris to be precipitated and the supernatants were collected and subjected to multiple resonance measurement utilizing magnetic coherence transfer between three elements of ^1H—^13C—^15N.

[13CH3][15N+]([13CH3])([13CH3])CCO [^13C3—^15N-choline chloride]
signals derived from methyl groups of cholines (triple resonance NMR, 3.0 ppm) in liver: detected
